From ChEMBL document CHEMBL3616415 come the findings set out here.

Some compounds may have been tested in ways that are not shown here.

The nature of the data set: Lipophilicity, log P of the compound. The settings on record: octanol/water.

One may read the logP as the decadic logarithm of the partition coefficient of the neutral form, usually between octanol and water. A lower logP goes with lower lipophilicity. Consider `CCC(=O)N(CC1CCN(Cc2ccc3c(c2)CCC[C@H]3N)CC1)c1ccccc1`, for which the logP amounted to 4.17.
